According to patent US8313771B2, “Phosphazene hydrogels with chemical corss-link, preparation method thereof and use thereof” (Korea Institute of Science and Technology, priority 2007, dated 2012):

Conditions: pH 7.4

- Max. gelling temp.: 30 °C
Substance: poly[(isoleucine ethyl ester)(aminomethoxypolyethylene glycol 550)(glycylglycine)(glycylglycylcystine ethyl ester)phosphazene] [Example 15]
